In this assay the target is AR-LBD wt (Homo sapiens, UniProt P10275). As to the kind of experiment: Lanthascreen TR-FRET AR coactivator (D11-FxxLF) assay, AR-LBD wt. In kind it is biochemical.

Protein sequences, listed by entry. Tags and fused reporters are not part of them. Residues count along the entry.
UniProt P10275, 669-900 limits assumed: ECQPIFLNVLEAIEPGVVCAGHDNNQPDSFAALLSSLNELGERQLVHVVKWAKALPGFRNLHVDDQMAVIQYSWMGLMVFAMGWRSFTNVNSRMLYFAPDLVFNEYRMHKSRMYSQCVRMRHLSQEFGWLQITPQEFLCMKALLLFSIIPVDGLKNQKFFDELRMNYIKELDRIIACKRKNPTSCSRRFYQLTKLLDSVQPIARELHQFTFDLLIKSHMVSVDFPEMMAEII

`CCCOc1ccc(/C=N/NC(=O)c2cc3c(ccc4ccccc43)o2)cc1` [MDG508] gave an IC50 of 17.9 ± 6.9 µM.

These data come from patent US9296716B2, “Androgen receptor ligands” (THE PROVOST, FELLOWS, FOUNDATION SCHOLARS, & THE OTHER …, priority 2011, dated 2016).
